The assay in a line: Inhibition of Escherichia coli thymidylate synthase.

SMILES strings stand for the structures.

A word on the IC50: it is the concentration that inhibits the measured activity by half. With `Cc1nc(=O)c2cc(CN(C)c3ccc(C(=O)N[C@@H](CCC(=O)O)C(=O)O)s3)ccc2[nH]1` [RALTITREXED], the IC50 turned out to be 2300 nM.

Source of the values: ChEMBL document CHEMBL1156263, “Single agents with designed combination chemotherapy potential: synthesis and evaluation of substituted pyrimido[4,5-b]indoles as receptor tyrosine kinase and thymidylate synthase inhibitors and as antitumor agents” (J Med Chem, 2010).
